Legend:
[1] = test system: peripheral blood mononuclear cells (PBMC); test: Mitochondrial metabolic activity, colorimetric MTT assay; format: cell-based; conditions: biotin-starved cultures, 0.05 mg/L and serial dilutions, 24 hours; compared to D-biotin, FIG. 5
[2] = test system: acetyl-CoA carboxylase ACC-2; conditions: rats, 0.01, 1, 100 mg/kg; compared to biotin, FIG. 4B

O=C(O)CCCC[C@@H]1SC[C@@H]2NC(=O)N[C@@H]21 [magnesium D-biotinate]
Relative mitochondrial activity (MTT) [1]: highly improved, unexpected, and significant result over the D-biotin administration
acetyl-CoA carboxylase ACC-2 activity [2]: unexpectedly improved
